Source: PubChem BioAssay AID425 (Sanford-Burnham Center for Chemical Genomics, 2006)
The entries are a selection whose mix differs from that of the whole data set. Potency and affinity values are given separately. Active and inactive are the calls of the source. Rule as the data show it: active = inhibition above about 50%; inactive = the rest.

Sequences of proteins named here, by UniProt entry; tags and fusion partners are left off.
UniProt Q64346, whole entry: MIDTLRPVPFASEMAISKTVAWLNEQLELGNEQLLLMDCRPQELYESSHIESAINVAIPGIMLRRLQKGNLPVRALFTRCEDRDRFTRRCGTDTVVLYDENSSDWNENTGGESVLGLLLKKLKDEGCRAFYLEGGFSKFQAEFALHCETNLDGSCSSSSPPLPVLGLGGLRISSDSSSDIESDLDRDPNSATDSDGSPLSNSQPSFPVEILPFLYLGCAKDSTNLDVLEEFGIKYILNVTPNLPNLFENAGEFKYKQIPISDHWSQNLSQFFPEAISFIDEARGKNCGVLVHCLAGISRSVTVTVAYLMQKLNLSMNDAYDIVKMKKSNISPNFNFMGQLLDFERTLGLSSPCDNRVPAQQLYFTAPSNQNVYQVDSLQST

target: Dual specificity protein phosphatase 6 (Rattus norvegicus) (UniProt Q64346); assay: inhibition of rat DUSP6 enzyme activity – biochemical, in vitro, primary screen (AID 425); details: recombinant MKP-3 phosphatase activity, fluorescence; at 20 µM; stronger effect = higher value;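 also: plate controls were vehicle for no effect and reference inhibitor for full effect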

| Structure (SMILES) | inhibition |
| --- | --- |
| N#CC1(Nc2ccccc2)CCN(CCc2ccccc2)CC1 | inactive: -1.9% |
| COc1ccc(NC2CCN(CCc3ccccc3)CC2)c(OC)c1 | inactive: -6.9% |
| O=C(OC1CN2CCC1CC2)C1c2ccccc2Oc2ccccc21 (configuration not stated) | inactive: -12.6% |
| CCOc1ncccc1C(=O)NCC1(N2CCOCC2)CCCCC1 | inactive: -4.6% |
| CCC(CO)(C(=O)OC1CN2CCC1CC2)c1ccccc1 (configuration not stated) | inactive: -8.2% |
| Fc1ccccc1NC1CCN(Cc2ccccc2)CC1 | inactive: -7.1% |
| N/C(=N\O)c1c(N)no[n+]1[O-] | inactive: -7% |
